# Tests used:
# The chains behind the UniProt entries cited, without tags or fusion partners. Residues count along the entry.
# UniProt P51449, 269-508 limits assumed: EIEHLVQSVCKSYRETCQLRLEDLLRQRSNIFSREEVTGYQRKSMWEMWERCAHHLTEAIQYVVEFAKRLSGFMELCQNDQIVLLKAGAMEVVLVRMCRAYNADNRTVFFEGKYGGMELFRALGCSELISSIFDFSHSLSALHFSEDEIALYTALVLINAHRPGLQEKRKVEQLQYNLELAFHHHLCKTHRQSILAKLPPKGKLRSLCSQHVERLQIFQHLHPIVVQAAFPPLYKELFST
# [1] = tested on: cigarette smoke (CS) induced pulmonary inflammation model in male C57BL6/J mice; test: Cigarette smoke (CS) induced pulmonary inflammation model, 7 days exposure, BAL cell count; settings: i.n., od, 7 days CS exposure
# [2] = biological target: human RORγ receptor (GST-tagged ROR gamma ligand binding domain) (Homo sapiens (Human), UniProt P51449); test: TR-FRET assay for ROR gamma (Lantha Screen co-activator peptide recruitment); format: biochemical; settings: read-out: IC50 value for inhibiting human RORγ receptor activity, 10 nM GST-tagged ROR gamma LBD
# [3] = BAL 20 hours after last smoke exposure
Compound,inhibition of pulmonary inflammation induced by cigarette smoke [1],"CS mediated increase in macrophages in BALf [1, 3]","CS mediated increase in neutrophils in BALf [1, 3]","CS mediated increase in total leukocyte count (TLC) in BALf [1, 3]",IC50 [2]
O=C(O)c1ccc(-n2cc(C(=O)c3c(Cl)cccc3Cl)c3ccccc32)c(F)c1,significant inhibition,significantly prevented,significantly prevented,significantly prevented,
CCn1c(C(C)(C)Oc2ccc(Cl)c(F)c2)nc2cc(NC(=O)Cc3ccc(S(=O)(=O)CC)cc3)ccc21,,,,,22.4 nM
O=C(O)c1ccc(-n2nc(C(=O)c3c(Cl)cccc3C3CC3)c3cccnc32)cc1,,,,,1.98 nM
